Conditions: earlier model study (unpublished)

SMILES: CNC(=O)c1cn(C[C@H](F)CCc2ccc(NC(=O)Cc3cc(OC4CC(F)(F)C4)cc(C)n3)nn2)nn1 [Compound 27, (R)-1-(4-(6-(2-(4-(3,3-difluorocyclobutoxy)-6-methylpyridin-2-yl)acetamido)pyridazin-3-yl)-2-fluorobutyl)-N-methyl-1H-1,2,3-triazole-4-carboxamide]
- maximally tolerated dose: 100 mg/kg BID

Reference: article PMC9007139 (Journal of medicinal chemistry, 2020)
